Results as given in US20260022116A1, “IMIDAZOPYRIDINE COMPOUNDS, PREPARATION THEREOF AND THERAPEUTIC USES THEREOF” (SANOFI, priority 2022, published 2026).
pIC50: −log10 of the molar value. Read-outs that look alike come from different tables or passages of the source.

Sequences of proteins named here, by UniProt entry; tags and fusion partners are left off. Residues count along the entry.
UniProt Q13164, 55-347 limits assumed: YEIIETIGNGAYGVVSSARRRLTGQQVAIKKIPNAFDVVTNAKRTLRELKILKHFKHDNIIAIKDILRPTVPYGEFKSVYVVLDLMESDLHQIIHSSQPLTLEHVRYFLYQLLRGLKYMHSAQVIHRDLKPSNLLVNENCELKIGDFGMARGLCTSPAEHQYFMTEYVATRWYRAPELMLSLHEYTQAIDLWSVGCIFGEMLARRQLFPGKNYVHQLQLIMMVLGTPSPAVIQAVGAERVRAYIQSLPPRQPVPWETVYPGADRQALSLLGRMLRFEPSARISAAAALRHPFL

Legend:
ERK5 [1] = molecular target: T1, ERK5 (Homo sapiens, UniProt Q13164); assay: biochemical
ERK5 [2] = molecular target: T1, ERK5

## COC(C)(C)c1nc2c(C3CCN(C(=O)c4ccc(OC(F)(F)F)cc4N)CC3)c(F)cnc2[nH]1 [Example 447, [2-amino-4-(trifluoromethoxy)phenyl]-[4-[6-fluoro-2-(1-methoxy-1-methyl-ethyl)-3H-imidazo[4,5-b]pyridin-7-yl]-1-piperidyl]methanone]
ERK5 [1]
  pIC50: 7.09
ERK5 [2]
  pIC50: 8.05

## Nc1cc(OC(F)(F)F)ccc1C(=O)N1CCC(c2c(F)cnc3[nH]c(C4CCOCC4)nc23)CC1 [Example 173, [2-amino-4-(trifluoromethoxy)phenyl]-[4-(6-fluoro-2-tetrahydropyran-4-yl-3H-imidazo[4,5-b]pyridin-7-yl)-1-piperidyl]methanone]
ERK5 [1]
  pIC50: 8.10
ERK5 [2]
  pIC50: 8.22
